Results reported in ChEMBL document CHEMBL1126124, “3-Phenyl-4-hydroxyquinolin-2(1H)-ones: potent and selective antagonists at the strychnine-insensitive glycine site on the N-methyl-D-aspartate receptor complex” (J Med Chem, 1992).

Columns and labels:
[1] = biological target: T1, Glutamate receptor ionotropic, NMDA 1 (Rattus norvegicus, UniProt P35439); experiment: Inhibition of [3H]-MK-801 binding to a N-methyl-D-aspartic acid(NMDA) receptor in glycine-sensitive rat cortical membranes.; assay type: cell membranes, Membrane
How it was run: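 Well-washed rat cortical membranes were given an added freeze/thaw step. [³H]MK-801 (2.5 nM) binding was run with 1 μM glutamate and 0.2 μM glycine for 2 h at 27 °C, then stopped by filtration. Nonspecific binding was defined with 0.5 μM MK-801. Values are IC50.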

[2] = biological target: T1, Glutamate receptor ionotropic, NMDA 1; experiment: Ability to displace strychnine-insensitive [3H]glycine binding to rat cortical membranes.
How it was run: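 Rat cortical membranes were prepared by a freeze/thaw Triton extraction. Incubation used [³H]glycine with 25 μg membrane fragments on ice for 1 h, ended by rapid filtration through GF/B filters. Nonspecific binding was defined with 100 μM D-serine.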

Question: What does the source list for `O=C(O)c1cc(=O)c2ccccc2[nH]1` [TRANSTORINE]?
Answer: IC50 [1]: 40.2 µM; Ki [2]: 5.4 µM
